Reference: ChEMBL document CHEMBL1149477, “Monocyclic thiophenes as protein tyrosine phosphatase 1B inhibitors: capturing interactions with Asp48” (Bioorg Med Chem Lett, 2006)

Target: T1, Tyrosine-protein phosphatase non-receptor type 1 (Homo sapiens, UniProt P18031)
T1 sequence (P18031 whole entry): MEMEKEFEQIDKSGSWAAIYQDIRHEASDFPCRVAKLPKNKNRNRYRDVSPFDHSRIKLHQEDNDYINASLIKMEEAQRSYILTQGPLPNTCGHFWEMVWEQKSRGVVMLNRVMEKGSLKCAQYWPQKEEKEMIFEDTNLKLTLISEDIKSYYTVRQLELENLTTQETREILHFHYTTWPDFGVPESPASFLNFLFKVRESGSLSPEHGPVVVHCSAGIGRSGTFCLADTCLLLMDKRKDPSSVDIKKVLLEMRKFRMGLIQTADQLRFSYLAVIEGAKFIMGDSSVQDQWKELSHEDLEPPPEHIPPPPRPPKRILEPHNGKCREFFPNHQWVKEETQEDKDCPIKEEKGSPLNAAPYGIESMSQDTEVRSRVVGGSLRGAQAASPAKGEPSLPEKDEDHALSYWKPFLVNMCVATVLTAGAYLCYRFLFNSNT
Experiment: Inhibition of PTP1B

| Ki | SMILES |
| --- | --- |
| 160 µM | O=C(O)COc1c(Br)csc1C(=O)O |
| 0.3 µM | O=C(O)COc1c(C(=O)O)sc(-c2ccc(O)cc2)c1Br |
